Earlier results on one compound are cited in paper PMC6943441, “The Meta-Position of Phe^4 in Leu-Enkephalin Regulates Potency, Selectivity, Functional Activity, and Signaling Bias at the Delta and Mu Opioid Receptors” (Molecules, 2019).

Series [1] concerns the target T1, δOR (Homo sapiens, UniProt P41143). The settings on record: read-out: cAMP potency.
In series [2] the target is T1, δOR.

Read-outs that look alike come from different tables or passages of the source.

As for `Cc1cc(O)cc(C)c1C[C@H](N)C(=O)N1Cc2ccccc2C[C@H]1C(=O)N[C@@H](CC(=O)O)c1nc2ccccc2[nH]1`, the EC50 at δOR [1] is 0.4 nM; at δOR [2] (read-out: β-arrestin 2 potency), 20 nM. At δOR [2], the “β-arrestin 2 efficacy” value is given as 60%.
